Amino acid sequences for entries named in this document (tags omitted).
UniProt P49238, whole entry: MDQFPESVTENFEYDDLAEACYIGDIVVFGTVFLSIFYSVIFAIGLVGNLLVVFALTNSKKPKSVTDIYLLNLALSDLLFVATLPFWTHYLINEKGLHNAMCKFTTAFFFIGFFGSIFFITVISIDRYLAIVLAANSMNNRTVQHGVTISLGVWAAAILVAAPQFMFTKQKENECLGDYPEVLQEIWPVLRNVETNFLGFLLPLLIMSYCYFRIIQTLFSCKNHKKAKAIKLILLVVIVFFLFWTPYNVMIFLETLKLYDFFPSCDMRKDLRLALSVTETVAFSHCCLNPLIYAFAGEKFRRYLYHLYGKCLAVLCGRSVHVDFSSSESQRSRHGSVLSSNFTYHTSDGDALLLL

In paper PMC4764977, “AZD8797 is an allosteric non-competitive modulator of the human CX3CR1 receptor” (Biochemical Journal, 2016):

Molecular target: human CX3CR1 (Homo sapiens, UniProt P49238)
Experiment: Equilibrium saturation binding, CHO-hCX3CR1 membranes
Settings: Bmax comparison; tested as the radiolabelled form
Experimental: Cells were washed in PBS and lysed with an Ultra-Turrax Homogenizer in 50 mM Tris/HCl (pH 7.4) and 1 mM EDTA with Complete™ protease inhibitor (Roche). […] Protein concentration was determined using the BCA method (Thermo Fisher Scientific). […] The filter plate was washed in ice-cold 25 mM HEPES (pH 7.4), 5 mM MgCl2, 1 mM CaCl2 and 500 mM NaCl and dried at 50°C for 1 h. Scintillation cocktail, Optiphase Supermix (PerkinElmer) was added to each well and the radioactivity was measured using a MicroBeta Trilux reader (PerkinElmer). […] The DMSO concentration was held constant at 1%. where Kd is the radioligand dissociation constant. Saturation binding isotherms were analysed by non-linear regression and globally fitted to a hyperbolic one-site binding model taking into account both NSB and total binding to calculate the total receptor number (Bmax) and radioligand dissociation constant (Kd): […] NSB=NS·X+Background, where NS is the concentration-dependent NSB. To visualize the manner of binding of CX3CL1 and AZD8797, a diagnostic affinity ratio plot designed to compare strictly competitive behaviour with allosteric interactions was used. […] For single site competitive interactions, the resulting linear plot has the slope of 1.0. […]

## CC(C)C[C@H](CO)Nc1nc(S[C@@H](C)c2ccccc2)nc2nc(N)sc12 [AZD8797]
  More binding sites than 125I-CX3CL1: 14 fold
